The assay addresses BTK (Homo sapiens (Human), UniProt Q06187). As to the kind of experiment: In vitro BTK kinase activity measured by trFRET. Format: biochemical. The following applies: read-out: Btk enzyme IC50; recombinant human catalytic domain (aa 393-659), 0.01 mM ATP. The method, then:
In Vitro BTK Kinase Activity Measured by Time-Resolved Fluorescence Resonance Energy Transfer (trFRET)
The in-house BTK corresponds to recombinant human catalytic domain (aa 393-659), which was expressed in SF9 cells with an N-terminal his tag and purified by immobilized metal affinity chromatography. BTK was mixed with peptide substrate (biotin-TYR1, Sequence: Biotin-(Ahx)-GAEEEIYAAFFA-COOH, 0.4 μM final) at varying inhibitor concentrations in reaction buffer: 50 mM MOPSO pH 6.5, 10 mM MgCl2, 2 mM MnCl2, 2.5 mM DTT, 0.01% BSA, 0.1 mM Na3VO4 and 0.01 mM ATP. After about 60 min incubation at rt, the reaction was quenched by addition of EDTA (final concentration: 100 mM) and developed by addition of detection reagents (final approximate concentrations: 30 mM HEPES pH 7.0, 0.06% BSA, 0.006% Tween-20, 0.24 M KF, 80 ng/mL PT66K (europium labeled anti-phosphotyrosine antibody cat #61T66KLB Cisbio, Bedford, Mass.) and 0.6 μg/mL SAXL (Phycolink streptavidin-allophycocyanin acceptor, cat #PJ25S, Prozyme, San Leandro, Calif.). The developed reaction was incubated in the dark for about 60 min at rt, then read via a time-resolved fluorescence detector (Rubystar, BMG) using a 337 nm laser for excitation and monitoring emission wavelength at 665 nm. […]

The chains behind the UniProt entries cited, without tags or fusion partners. Residues count along the entry.
UniProt Q06187, 393-659 limits assumed: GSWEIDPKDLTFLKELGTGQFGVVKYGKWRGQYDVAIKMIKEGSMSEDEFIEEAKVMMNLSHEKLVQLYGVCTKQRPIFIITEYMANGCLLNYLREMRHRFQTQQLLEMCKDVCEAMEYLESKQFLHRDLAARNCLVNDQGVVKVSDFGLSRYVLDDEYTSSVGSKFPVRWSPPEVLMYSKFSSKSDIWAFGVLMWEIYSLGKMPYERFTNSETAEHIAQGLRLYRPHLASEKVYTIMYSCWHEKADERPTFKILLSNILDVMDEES

Data on 1 molecule can be found in patent US10280184B2, “Heterocyclic kinase inhibitors” (AbbVie Inc., priority 2014, dated 2019).

Molecules are shown by their SMILES.

Broadly, the IC50 is the point on the concentration scale where inhibition reaches its midpoint. `C=CC(=O)N1CCC(c2cc(Nc3cc(N4CCOCC4)ccn3)c3ncnn3c2)C1` (stereo not shown): the IC50 lay within 1 to 50 µM.
